Patent US12472175B2, “Methods of treating venetoclax-resistant acute myeloid leukemia” (OREGON HEALTH & SCIENCE UNIVERSITY, priority 2019, dated 2025)

Tested on: MOLM-13 and MV4;11 cells with TP53 and BAX KOs
Assay: Small molecule inhibitor panel screen, changes common to modified MOLM-13 and MV4;11 cells
Format: cell-based, Human
Conditions: TP53 inactivated MV4;11 and MOLM-13 cells
Description: Small-molecule inhibitors, purchased from LC Laboratories (Woburn, Mass., USA) and Selleck Chemicals (Houston, Tex., USA), were reconstituted in DMSO and stored at −80° C. Inc. Inhibitors were distributed into 384-well plates prepared with a single agent/well in a 7-point concentration series ranging from 10 μM to 0.04 μM for each drug. […] After three days of culture at 37° C. in 5% CO2, MTS reagent (CellTiter96 AQueous One; Promega Madison, Wis., USA) was added, optical density was measured at 490 nm, raw absorbance values were adjusted to a reference blank value, and then used to determine cell viability (normalized to untreated control wells). Prizm software(GraphPad) was used to perform non-linear regression analyses on normalized values for the determination of IC50.
FIG. 7A. MOLM-13 and MV4;11 cells, transduced with indicated sgRNAs/Cas9 viruses, were screened with a panel of inhibitors targeting various molecular pathways and assessed using the cell survival method described in FIG. 2A.
FIG. 7B. Analyses of FLT3 inhibitor sensitivities, in MOLM-13 and MV4;11 parental and Crispr-modified cells, as indicated. Drug sensitivity was measured as described in FIG. 2A, with IC50 measured in triplicate.

CC(C)(C)c1cc(NC(=O)Nc2ccc(-c3cn4c(n3)sc3cc(OCCN5CCOCC5)ccc34)cc2)no1 [quizartinib]
sensitivity to FLT3 inhibitors: loss of sensitivity
